Results as given in patent US20100065444A1, “PACK CONTAINING SOFT CAPSULES” (priority 2007, published 2010).

Test: Stability of multivitamin soft capsules in container with channel former and absorbent embedded in the inside walls, 30° C./65% RH
Format: physicochemical
Method: Multivitamin soft capsules (active-compound composition and capsule shell as described below) are introduced into a resealable container in/on the inside wall(s) of which at least one channel former is embedded, at least over part of the area, together with at least one absorbent (type: M-3006-16 Activ-Vial) in the inside walls of which a molecular sieve having a capacity of 1.92 g is embedded.
The multivitamin soft capsules are stored at 30° C. and 65% relative humidity (RH), removed from storage after predetermined times, assessed visually with respect to their appearance and investigated analytically with respect to the amounts of active compound present.

[1] = Multivitamin soft capsule batch GD 06 0045, 6 months
[2] = Multivitamin soft capsule batch GD 06 0045, Start

Substance: Thiamine nitrate
- amount of active compound present [1]: 2.37 mg/capsule
- amount of active compound present, % of start [1]: 99%
- amount of active compound present [2]: 2.40 mg/capsule
- amount of active compound present, % of start [2]: 100%
